Publication PMC8007111, “Novel Potent Muscarinic Receptor Antagonists: Investigation on the Nature of Lipophilic Substituents in the 5- and/or 6-Positions of the 1,4-Dioxane Nucleus” (Journal of Medicinal Chemistry, 2020)

Amino acid sequences for entries named in this document (tags omitted). A change or cut given only in a name is not applied to a line headed by its entry.
UniProt P08173, whole entry: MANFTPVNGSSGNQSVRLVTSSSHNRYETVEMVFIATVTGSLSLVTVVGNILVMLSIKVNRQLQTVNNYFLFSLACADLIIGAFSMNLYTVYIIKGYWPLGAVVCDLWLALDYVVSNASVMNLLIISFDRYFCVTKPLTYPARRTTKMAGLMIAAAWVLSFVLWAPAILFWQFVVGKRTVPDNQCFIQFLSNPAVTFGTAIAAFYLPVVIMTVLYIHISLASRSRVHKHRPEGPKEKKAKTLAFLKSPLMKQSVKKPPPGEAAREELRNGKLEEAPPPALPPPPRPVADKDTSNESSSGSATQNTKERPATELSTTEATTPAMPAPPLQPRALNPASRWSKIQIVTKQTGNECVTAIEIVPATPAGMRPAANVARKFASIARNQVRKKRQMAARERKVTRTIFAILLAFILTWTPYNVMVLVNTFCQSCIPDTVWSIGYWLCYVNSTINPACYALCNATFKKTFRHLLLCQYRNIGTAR
UniProt P20309, whole entry: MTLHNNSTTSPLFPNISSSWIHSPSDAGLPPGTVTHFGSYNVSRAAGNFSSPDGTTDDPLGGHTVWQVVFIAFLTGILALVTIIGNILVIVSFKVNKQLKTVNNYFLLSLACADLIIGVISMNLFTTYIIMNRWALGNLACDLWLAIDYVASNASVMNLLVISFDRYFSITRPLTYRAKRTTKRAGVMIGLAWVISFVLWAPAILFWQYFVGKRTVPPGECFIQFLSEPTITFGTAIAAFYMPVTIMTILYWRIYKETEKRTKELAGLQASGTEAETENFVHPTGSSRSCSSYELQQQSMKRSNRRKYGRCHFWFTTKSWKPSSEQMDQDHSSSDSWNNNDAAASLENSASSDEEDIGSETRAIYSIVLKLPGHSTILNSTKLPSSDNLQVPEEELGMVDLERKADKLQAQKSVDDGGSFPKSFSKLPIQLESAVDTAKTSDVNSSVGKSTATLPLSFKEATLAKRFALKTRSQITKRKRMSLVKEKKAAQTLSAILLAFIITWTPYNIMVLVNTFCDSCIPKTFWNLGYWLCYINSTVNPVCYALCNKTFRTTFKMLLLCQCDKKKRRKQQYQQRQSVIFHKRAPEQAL
UniProt P08912, whole entry: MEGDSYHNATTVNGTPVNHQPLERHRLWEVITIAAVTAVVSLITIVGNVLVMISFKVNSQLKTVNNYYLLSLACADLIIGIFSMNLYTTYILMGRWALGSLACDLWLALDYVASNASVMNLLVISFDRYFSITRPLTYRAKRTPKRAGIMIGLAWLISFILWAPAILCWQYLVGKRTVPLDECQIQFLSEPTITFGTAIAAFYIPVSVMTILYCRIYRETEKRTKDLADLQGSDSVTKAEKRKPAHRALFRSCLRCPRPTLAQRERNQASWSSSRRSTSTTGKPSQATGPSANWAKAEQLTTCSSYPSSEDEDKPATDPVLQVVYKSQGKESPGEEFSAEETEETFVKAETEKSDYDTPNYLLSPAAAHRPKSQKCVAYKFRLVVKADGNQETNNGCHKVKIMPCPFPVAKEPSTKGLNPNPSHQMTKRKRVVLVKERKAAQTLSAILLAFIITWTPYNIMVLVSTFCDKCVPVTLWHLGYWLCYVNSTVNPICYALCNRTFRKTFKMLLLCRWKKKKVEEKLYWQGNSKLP
UniProt P11229: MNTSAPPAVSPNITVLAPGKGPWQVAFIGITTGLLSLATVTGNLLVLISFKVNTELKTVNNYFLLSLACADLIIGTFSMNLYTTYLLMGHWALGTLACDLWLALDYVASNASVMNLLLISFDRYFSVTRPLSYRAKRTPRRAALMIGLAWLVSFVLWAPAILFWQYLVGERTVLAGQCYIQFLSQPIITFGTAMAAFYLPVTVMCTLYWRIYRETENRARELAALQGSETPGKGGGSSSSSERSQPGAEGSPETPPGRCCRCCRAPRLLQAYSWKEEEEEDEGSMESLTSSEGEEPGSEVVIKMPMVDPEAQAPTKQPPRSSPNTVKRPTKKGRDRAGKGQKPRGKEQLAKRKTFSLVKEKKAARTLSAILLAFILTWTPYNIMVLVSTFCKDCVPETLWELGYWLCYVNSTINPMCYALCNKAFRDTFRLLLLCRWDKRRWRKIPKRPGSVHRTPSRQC
UniProt P08172, whole entry: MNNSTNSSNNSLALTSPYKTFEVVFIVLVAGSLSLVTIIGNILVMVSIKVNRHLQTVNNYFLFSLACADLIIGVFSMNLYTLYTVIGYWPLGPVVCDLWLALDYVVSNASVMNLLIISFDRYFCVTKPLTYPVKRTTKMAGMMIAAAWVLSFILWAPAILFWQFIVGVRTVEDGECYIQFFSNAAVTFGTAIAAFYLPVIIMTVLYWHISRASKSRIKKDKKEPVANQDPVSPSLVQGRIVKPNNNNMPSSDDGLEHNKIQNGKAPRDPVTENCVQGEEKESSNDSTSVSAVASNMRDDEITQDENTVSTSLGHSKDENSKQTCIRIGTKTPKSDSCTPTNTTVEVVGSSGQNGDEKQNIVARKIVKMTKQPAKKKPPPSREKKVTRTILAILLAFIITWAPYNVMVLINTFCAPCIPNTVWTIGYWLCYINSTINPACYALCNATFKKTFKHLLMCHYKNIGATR

Legend:
[1] = biological target: T1, hM4 mAChR (Homo sapiens, UniProt P08173); test: [3H]NMS inhibition radioligand binding, hM4 in CHO-K1 cell membranes; conditions: eutomer vs distomer
T1 construct: expressed in transfected cells; host or cells: CHO-K1 (membrane preparation)
Description: (§1) CHO-K1 cells stably transfected with the human muscarinic receptor subtypes (hM1–5) were grown in Dulbecco’s modified Eagle’s medium (DMEM) with nutrient mixture F12 (DMEM/F12, 50/50), containing 10% fetal bovine serum, penicillin (100 U/mL), streptomycin (100 U/mL), L-glutamine (4 mM), and geneticin (G-418, 50 μg/mL) at 37 °C in a 5% CO2 humidified incubator. […] Serum (0.7 mL) was added to inactivate the trypsin, and the cells were spun down by centrifuging at 300g for 5 min. The cells were then resuspended in ice-cold 25 mM sodium phosphate buffer containing 5 mM MgCl2, pH 7.4 (binding buffer) and homogenized using a cell disrupter (Ultra-Turrax, setting 3, 30 s). The homogenate was sedimented by centrifugation (17,000g, 15 min). […] The protein content was determined by the method of Bradford (1976) with bovine serum albumin (Sigma) as a standard and stored at −80 °C.
(§2) Inhibition radioligand binding assays were conducted as previously described[48],[49] with 0.2 nM [^3H]NMS in binding buffer in a final volume of 250 μL. […] Bound and free radioactivity were separated by filtering the assay mixture through UniFilter GF/B plates using a FilterMate Cell Harvester (PerkinElmer Life and Analytical Science). The filter bound radioactivity was counted by a TopCount NXT Microplate Scintillation Counter (PerkinElmer Life and Analytical Science). […]

[2] = biological target: T2, hM3 mAChR (Homo sapiens, UniProt P20309); test: [3H]NMS inhibition radioligand binding, hM3 in CHO-K1 cell membranes
T2 construct: expressed in transfected cells; host or cells: CHO-K1 (membrane preparation)
Description: as §1, §2

[3] = biological target: T3, hM5 mAChR (Homo sapiens, UniProt P08912); test: [3H]NMS inhibition radioligand binding, hM5 in CHO-K1 cell membranes; conditions: eutomer vs distomer
T3 construct: expressed in transfected cells; host or cells: CHO-K1 (membrane preparation)
Description: as §1, §2

[4] = biological target: T4, hM1 mAChR (Homo sapiens, UniProt P11229); test: [3H]NMS inhibition radioligand binding, hM1 in CHO-K1 cell membranes; conditions: eutomer vs distomer
T4 construct: expressed in transfected cells; host or cells: CHO-K1 (membrane preparation)
Description: as §1, §2

[5] = biological target: T5, hM2 mAChR (Homo sapiens, UniProt P08172); test: [3H]NMS inhibition radioligand binding, hM2 in CHO-K1 cell membranes; conditions: eutomer vs distomer
T5 construct: expressed in transfected cells; host or cells: CHO-K1 (membrane preparation)
Description: as §1, §2

SMILES | ER (eudismic ratio) hM4 [1] | ER (eudismic ratio) hM3 ([2]; eutomer vs distomer) | ER (eudismic ratio) hM5 [3] | ER (eudismic ratio) hM1 [4] | ER (eudismic ratio) hM2 [5] | M3/M2 selectivity ratio ([2]; from binding affinities at hM3 and hM2)
C[N+](C)(C)C[C@H]1COCC(c2ccccc2)(c2ccccc2)O1 [(S)-(−)-2, reference compound] | 102 | 42 | 63 | 32 | 12 | –
C[N+](C)(C)CC1COCC(c2ccccc2)(c2ccccc2)O1.[I-] (stereo not drawn) [compound 2, reference compound] | – | – | – | – | – | 1.6
